Test results as given in patent publication US20030091998A1, “Association of beta2-adrenergic receptor haplotypes with drug response” (priority 2000, published 2003).

System: asthma patients
Experiment: In vivo FEV1 (bronchodilator) response to albuterol in asthma patients, by β2AR haplotype pair
Set-up: species or system human
Settings: Caucasian asthma patients with β2AR haplotype pair 4/6; spirometry before and 30 min after inhalation of 180 μg albuterol by nebulization
Experimental: The patients in the asthma cohort were enrolled from an outpatient facility as described in detail elsewhere (Yan, L., Galinsky, R. E., Bernstein, J. A., Liggett, S. B. & Weinshilboum, R. M. (1999) Pharmacogenetics in Press). […] Forced expiratory volume in 1 second (FEV1) and forced vital capacity (FVC) were determined in triplicate. The predicted values for these measurements were calculated based on standard algorithms (Morris, J. F., Koski, A. & Johnson, L. C. (1971) Am Rev Respir Dis 103, 57-67).
The association between changes in % predicted FEV1 and haplotype pair was assessed by fitting an analysis of covariance model (ANCOVA) with terms for haplotype pair, sex and baseline severity. P-values from pairwise comparisons by haplotype pair were adjusted for multiple comparisons by applying the Holm-Sidak step-down procedure (Ludbrook, J. (1998) Clin and Exp Pharmacology & Physiology 25, 1032-1037.). […] In addition, the African-American asthma patients were excluded from the analysis due to the low number of individuals in this population group. […]
Pairwise tests were made while correcting for multiple comparisons. […] Since 0, 1 or 2 copies of these two haplotypes are present in our population as haplotype pairs 2/2, 2/4 and 4/4, a potential gene dose effect can be assessed by regression analysis.

CC(C)(C)NCC(O)c1ccc(O)c(CO)c1 (stereo not shown) [albuterol]
change % FEV1 (change in % predicted FEV1): 19.1±2.79%
